According to patent US9452152B2, “Fe(III) complex compounds for the treatment and prophylaxis of iron deficiency symptoms and iron deficiency anemias” (Vifor (International) AG, priority 2012, dated 2016):

Test: Comparison of the pH-dependent solubility (photometric iron determination)
Type: physicochemical
From the text: The pH was adjusted to 6.5 with a phthalate buffer (0.1 m). […] UV device type SPECORD 205 manufacturer Jena Analytik). This value represents the solubility of the iron complex. If the weighed amount of the iron complex was completely dissolved, the measured value was indicated by the prefix “>”.

With “Tris-(N,N-Dimethyl-3,4-dioxo-4-(pyrrolidine-1-yl)butaneamide)-iron(III) complex [Example 11]” the “Solubility based on amount of iron” value (pH 6.5) was >330 µg/mL and the “optical evaluation: dissolved?” value (water, pH 6.5 (phthalate buffer 0.1 m), 4 h, 25° C.) was “yes”.
